Results reported in article PMC10974945, “Targeting MutT Homolog 1 (MTH1) for Breast Cancer Suppression by Using a Novel MTH1 Inhibitor MA−24 with Tumor-Selective Toxicity” (Pharmaceuticals, 2024).

What follows are compounds tested on MCF−7 cells (assay: MTT cell viability/proliferation assay, MCF−7). Settings: compound concentration 200 μM.

Row | Structure (SMILES) | Inhibition (%) (Mean ± SD) of MCF−7 cell proliferation
1 | CNc1cc(Nc2cccc(Cl)c2Cl)nc(N)n1 | 11.8 ± 4.5
2 | CNc1cc(Nc2ccccc2F)nc(N)n1 | 30.3 ± 4.1
3 | CCNc1cc(Nc2ccccc2)nc(N)n1 | 37.8 ± 8.8
4 | CNc1nc(N)nc(NCCc2ccccc2)n1 | 27.3 ± 4.2
5 | Nc1nc(Nc2ccccc2)cc(NC2CC2)n1 | 44.2 ± 8.4
6 | CNc1nc(N)nc(Nc2cccc(Cl)c2Cl)n1 | 52.1 ± 2.9
7 | CNc1cc(Nc2cccc(F)c2)nc(N)n1 | 28.1 ± 1.5

The compounds below were run against MTH1 (Homo sapiens, UniProt P36639) (assay: MTH1 enzymatic inhibition, malachite green colorimetric assay). Settings: read-out: IC50 to MTH1 (mean ± SD); malachite green staining assay, dGTP substrate.

Row | Structure (SMILES) | IC50 [nM]
8 | CNc1cc(Nc2cccc(F)c2)nc(N)n1 | > 500
